Values of other authors in patent US6362171B1, “Aminoaklanoyl-linked conjugates of 2′,5′-oligoadenylate and antiviral uses thereof” (priority 1997, dated 2002).

Experiments:
[1] = literature ref [9]; cited from earlier work
cells = conditions: literature ref [9]; cited from earlier work

(2′-5′)d^3′(A-A-A) [CCC]
Metabolic stability [1]: metabolically stable
Toxicity to cells (cells): not toxic to cells
